{"sequences": {"note": "By UniProt entry, the sequences of proteins in these tests, tags left out.", "UniProt P32300, whole entry": "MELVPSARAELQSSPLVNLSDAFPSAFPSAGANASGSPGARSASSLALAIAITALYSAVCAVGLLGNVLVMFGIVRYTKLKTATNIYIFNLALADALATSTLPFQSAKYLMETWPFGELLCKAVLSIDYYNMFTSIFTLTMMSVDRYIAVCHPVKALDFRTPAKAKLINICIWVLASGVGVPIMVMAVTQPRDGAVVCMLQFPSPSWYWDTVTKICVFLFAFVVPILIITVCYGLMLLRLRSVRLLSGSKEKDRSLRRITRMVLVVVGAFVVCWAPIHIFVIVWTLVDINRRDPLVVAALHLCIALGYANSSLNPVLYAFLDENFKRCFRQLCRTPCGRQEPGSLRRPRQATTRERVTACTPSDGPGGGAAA"}, "source": "patent US4684620A", "about": "“Cyclic polypeptides having mu-receptor specificity” (Gibson-Stephens Neuropharmaceuticals, Inc., priority 1984, dated 1987)", "target": "T1, delta-type opiate receptors (Mus musculus, UniProt P32300)", "T1 construct": "from tissue; host or cells: mouse vas deferens", "assay": "Mouse vas deferens (MVD) test, electrically stimulated contractions, antagonism of DPDPE", "details": "DPDPE alone", "method": "The compounds of the present invention were tested for their ability to inhibit electrically stimulated muscle contractions in the guinea pig ileum (GPI) assay and in the mouse vas deferens (MVD) assay.\nThe mouse vasa deferentia tests were conducted as follows: vas deferens of male mice were placed in a 60 ml tissue bath and attached to a force transducer. Contractions were induced by electrical stimulation. […] Percent inhibition was calculated."}
{"substance": "DPDPE [reference compound]", "values": [{"measurement": "Percent inhibition of contractions", "setting": "1 nM", "result": "6 ± 1", "unit": "%"}, {"measurement": "Percent inhibition of contractions", "setting": "3 nM", "result": "11 ± 3", "unit": "%"}, {"measurement": "Percent inhibition of contractions", "setting": "10 nM", "result": "22 ± 6", "unit": "%"}, {"measurement": "Percent inhibition of contractions", "setting": "30 nM", "result": "42 ± 9", "unit": "%"}, {"measurement": "Percent inhibition of contractions", "setting": "100 nM", "result": "53 ± 9", "unit": "%"}, {"measurement": "Percent inhibition of contractions", "setting": "300 nM", "result": "77 ± 8", "unit": "%"}]}
